Experimental data taken from patent publication US10214507B2, “Carbazole-containing amides, carbamates, and ureas as cryptochrome modulators” (Reset Therapeutics, Inc., priority 2014, dated 2019).
Like-named read-outs stand apart in the source and are kept apart here. Blank lines part the entries; values can stand above or below the molecule they belong to.

Tests used:
[1] = test system: core clock gene mRNAs in livers of ICR mice; experiment: Four day study, liver clock gene mRNA by RT-qPCR, ICR mice; format: in vivo, mouse; details: 50 mg/kg PO BID 4 days
Procedure: Male ICR mice (weighing 30-35 g), obtained from Charles River Laboratories (Hollister, CA), were used for the experiment following at least 3 days of acclimation. Mice were dosed with vehicle (WFI or 10% Kolliphor) or compound (50 mg/kg, dose volume 5 mL/kg, PO) for 4 days BID (twice a day), beginning in the afternoon of the first day. The last dose of compound or vehicle was administered on the morning of harvest. On the day of harvest (6 hours following the final dose), mice were euthanized by CO2 asphyxiation and 50 mg of liver tissue was excised and placed in a tube containing 500 μl of RNA later.
E.Z.N.A.® HP Total RNA Isolation Kits (R6812-01 and the protocol described in the Manual, Revised 2010) were utilized to prepare and isolate RNA from the liver samples. To prepare the RNA samples, 10-30 mg of sample was removed from RNA-Later and placed in a 1.5 ml microfuge tube. GTC lysis buffer (700 μl) was added to the tissue, which was homogenized with a rotor-stator homogenizer (e.g. Tissue-Tearor, Model #985370 BioSpec Products with 4.5 mm probe, Cat. #985370-04), and then centrifuged at full speed (>13,000×g) for 5 minutes. The cleared supernatant was transferred by pipetting to a DNA Clearance Column Pre-inserted in a 2 mL Collection Tube. The assembled column was centrifuged at 13,000×g for 1 minute, and the flow-through was saved. An equal volume (700 μl) of 70% ethanol was added to the lysate and mixed. The sample was then applied to a HiBind RNA spin column placed into a 2 ml collection tube, which was centrifuged at 10,000×g for 60 seconds at room temperature. […]
RediPlate 96 RiboGreen RNA Quantification Kit (Invitrogen) RediPlate standard curve was prepared by transferring 20 μl reconstituted RNA standard to a RediPlate well reconstituted in 180 μl RediPlate TE buffer. […] After transferring 5 μl to RediPlate well reconstituted in 195 μl TE buffer and incubating 10 min. at RT, Fluorescence Intensity of wells with standards and samples were read in a Tecan M200 with Excitation set at 480 nm and Emission set at 520 nm with the gain set to −70%. […]

[2] = Pharmacokinetic analysis in ICR mice (plasma and liver, LC/MS/MS); format: in vivo, mouse; details: 50 mg/kg P.O.; for Cmax / Tmax / half-life / MRT last: male, ICR, po; for Cmax: 50 mg/kg; for half-life: read-out: Elimination T1/2 (converted); for MRT last: read-out: MRT (0-last, hr); for AUC (0-last; ng · hr/mL): head printed MRT, apparently AUC 0-last
Procedure: Male ICR mice (weighing 30-40 g, Charles River Laboratories) were used for the experiment with n=3 mice for each experimental group (27 mice total for the study). […] Blood and liver tissue were collected at the following time points after administration: 15, 30, 60, 90 minutes, 3, 6, 12 and 24 hours. A control group of animals (TO) was also sampled. Animals were euthanized with CO2 and the blood collected from the heart using cardiac puncture, transferred to an EDTA tube, and then centrifuged at 5400 rpm for 5 minutes at 4° C. The resultant plasma was frozen using dry ice and then stored at −80° C. until ready for assay. Liver tissue was removed from each animal, 0.5 g was collected in an eppendorff, frozen and submitted for pharmacokinetic measurement. […] Raw data was analyzed using WinNonLin for PK parameters (Cmax, Tmax, elimination t^1/2, MRT (mean residence time), AUC (area under the curve)−(0-last and % extrapolated).

[3] = in vivo; details: male, db/db, mouse, liver, oral
[4] = test system: db/db mouse model of type II diabetes; details: db/db mice
[5] = test system: C57/Bl6J DIO mice; experiment: 7 day dosing in diet-induced obesity (DIO) mouse model; format: in vivo; details: positive control 30 mg/kg PO 7 days
From the text: (§1) Male C57/Bl6J DIO mice were obtained from The Jackson Laboratory (Sacramento, Calif.). […] Animals were accustomed to these conditions for at least 2 weeks before experimentation and used at approximately 24 weeks of age.
(§2) Significance was accepted when p<0.05.

[6] = test system: C57/Bl6J DIO mice; experiment: Increasing dosages of Compound 72 for 7 days in diet-induced obesity mouse model; format: in vivo; details: positive control 30 mg/kg QD PO 7 days
From the text: as §1, §2
Male C57/Bl6J DIO mice were obtained from The Jackson Laboratory (Sacramento, Calif.). […] Animals were accustomed to these conditions for at least 2 weeks before experimentation and used at approximately 26 weeks of age.

Cmax ([2]; mouse, liver, mouse liver, read-out: Cmax): 33000 ng/mL
Cmax ([2]; mouse, liver, mouse, unbound, read-out: Cmax UB (liver)): 990 ng/mL
Cmax ([2]; mouse, plasma, mouse plasma, read-out: Cmax): 893 ng/mL
Cmax ([2]; mouse, plasma, mouse, read-out: Cmax (plasma)): 893 ng/mL
Cmax ([2]; mouse, plasma, mouse, unbound, read-out: Cmax UB (plasma)): 26.8 ng/mL
Tmax ([2]; mouse liver): 0.25 h
half-life ([2]; mouse liver): 3.12 h
MRT last ([2]; mouse liver): 1.5 h
Tmax ([2]; mouse plasma): 0.25 h
half-life ([2]; mouse plasma): 3.18 h
MRT last ([2]; mouse plasma): 3.92 h
% AUC extrapolated ([2]; mouse liver): 0.142%
AUC (total; ng · hr/mL) ([2]; mouse liver): 26800 ng·h/mL
AUC (0-last; ng · hr/mL) ([2]; mouse liver): 26800 ng·h/mL
% AUC extrapolated ([2]; mouse plasma): 0.564%
AUC (total; ng · hr/mL) ([2]; mouse plasma): 1930 ng·h/mL
AUC (0-last; ng · hr/mL) ([2]; mouse plasma): 1920 ng·h/mL
Cmax (liver) ([2]; mouse): 33000 ng/mL
Total Liver AUC (0-last) ([2]; mouse): 26800
Unbound Liver AUC (0-last) ([2]; mouse): 804
Unbound Plasma AUC (0-last) ([2]; mouse): 57
concentration at 8 h ([3]; 30 mg/kg): 190 nM
concentration at 8 h ([3]; 100 mg/kg): 670 nM
concentration at 8 h ([3]; 300 mg/kg): 4770 nM
liver exposure below the Per2 EC50 value ([4]; 30 mg/kg): around 1.6 fold
liver exposure higher than the Per2 EC50 value ([4]; 100 mg/kg): 2.2 fold
liver exposure higher than the Per2 EC50 value ([4]; 300 mg/kg): 15.9 fold
Structure (SMILES): O=C1C(F)CCN1CC(O)Cn1c2ccc(F)cc2c2cc(F)ccc21 (centres unmarked) [Compound 9, 1-(3-(3,6-difluoro-9H-carbazol-9-yl)-2-hydroxypropyl)-3-fluoropyrrolidin-2-one]
Cry2 transcripts ([1]; ICR mice liver): decrease
increase in Bmal1 mRNA at ZT6 ([1]; ICR mice liver): 4 fold
liver Per2 expression ([1]; ICR mice, ZT6): suppression
HOMA-IR ([4]; 30 mg/kg QD PO 7 days): 289.9+/−24.40 units
glucose AUC from OGTT ([4]; 30 mg/kg QD PO 7 days): 44442+/−3895
plasma insulin at t=0 ([4]; 30 mg/kg QD PO 7 days): 10.94 ± 1.62 ng/mL
plasma insulin at t=2 hr ([4]; 30 mg/kg QD PO 7 days): 5.76 ± 0.11 ng/mL
reduction of glucose AUC from vehicle control ([4]; 30 mg/kg QD PO 7 days): 21%
HOMA-IR ([4]; 100 mg/kg QD PO 7 days): 175.3+/−27.52 units
fasting blood glucose ([4]; 100 mg/kg QD PO 7 days): 403.1 ± 39.73 mg/dL
glucose AUC from OGTT ([4]; 100 mg/kg QD PO 7 days): 33643+/−4822
plasma insulin at t=0 ([4]; 100 mg/kg QD PO 7 days): 7.71 ± 1.26 ng/mL
plasma insulin at t=2 hr ([4]; 100 mg/kg QD PO 7 days): 3.70 ± 0.29 ng/mL
reduction of HOMA-IR compared to vehicle control ([4]; 100 mg/kg QD PO 7 days): 60%
reduction of glucose AUC from vehicle control ([4]; 100 mg/kg QD PO 7 days): 40%
HOMA-IR ([4]; 300 mg/kg QD PO 7 days): 301.4+/−52.66 units
glucose AUC from OGTT ([4]; 300 mg/kg QD PO 7 days): 33650+/−4688
plasma insulin at t=0 ([4]; 300 mg/kg QD PO 7 days): 10.54 ± 1.6 ng/mL
plasma insulin at t=2 hr ([4]; 300 mg/kg QD PO 7 days): 4.01 ± 0.44 ng/mL
reduction of glucose AUC from vehicle control ([4]; 300 mg/kg QD PO 7 days): 40%

Structure (SMILES): CN(CCOc1ccc(CC2SC(=O)NC2=O)cc1)c1ccccn1 (centres unmarked) [Rosiglitazone, reference compound]
glucose AUC [5]: 11500+/−1104 units
glucose AUC ([4]; positive control 30 mg/kg QD PO 7 days): 11502+/−2118 units
glucose AUC [6]: 9858+/−1281 units
